Results reported in ChEMBL document CHEMBL3217617 (Medchemcomm, 2012).

Chains of the proteins cited; added tags and fusions are not shown. Lines headed by an entry give the natural chain unless they say otherwise; changes in a name come on top.
UniProt Q13547, whole entry: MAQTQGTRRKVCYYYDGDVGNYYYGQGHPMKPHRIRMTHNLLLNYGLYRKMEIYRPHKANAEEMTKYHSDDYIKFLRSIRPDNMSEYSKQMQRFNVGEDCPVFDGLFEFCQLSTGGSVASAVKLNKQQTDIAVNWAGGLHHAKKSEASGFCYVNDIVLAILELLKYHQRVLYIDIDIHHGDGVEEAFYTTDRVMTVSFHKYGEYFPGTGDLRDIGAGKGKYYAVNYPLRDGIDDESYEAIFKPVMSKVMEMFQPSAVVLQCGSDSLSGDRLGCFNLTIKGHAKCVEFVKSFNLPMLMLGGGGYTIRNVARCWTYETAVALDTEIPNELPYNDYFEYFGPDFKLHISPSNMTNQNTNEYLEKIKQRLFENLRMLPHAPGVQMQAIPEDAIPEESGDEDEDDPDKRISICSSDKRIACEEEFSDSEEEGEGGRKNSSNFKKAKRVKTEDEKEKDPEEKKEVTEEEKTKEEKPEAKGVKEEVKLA
UniProt O15379: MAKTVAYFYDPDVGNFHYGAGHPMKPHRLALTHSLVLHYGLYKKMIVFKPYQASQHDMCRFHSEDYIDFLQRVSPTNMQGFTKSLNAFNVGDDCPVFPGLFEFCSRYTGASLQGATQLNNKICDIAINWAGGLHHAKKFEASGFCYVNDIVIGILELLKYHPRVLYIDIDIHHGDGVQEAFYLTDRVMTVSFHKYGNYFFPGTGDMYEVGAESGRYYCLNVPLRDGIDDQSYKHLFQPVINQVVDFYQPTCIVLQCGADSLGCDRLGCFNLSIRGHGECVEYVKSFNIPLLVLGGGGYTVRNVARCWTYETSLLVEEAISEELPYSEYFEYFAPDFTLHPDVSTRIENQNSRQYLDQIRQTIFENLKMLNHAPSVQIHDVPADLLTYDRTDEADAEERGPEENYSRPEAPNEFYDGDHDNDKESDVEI
UniProt Q9UBN7: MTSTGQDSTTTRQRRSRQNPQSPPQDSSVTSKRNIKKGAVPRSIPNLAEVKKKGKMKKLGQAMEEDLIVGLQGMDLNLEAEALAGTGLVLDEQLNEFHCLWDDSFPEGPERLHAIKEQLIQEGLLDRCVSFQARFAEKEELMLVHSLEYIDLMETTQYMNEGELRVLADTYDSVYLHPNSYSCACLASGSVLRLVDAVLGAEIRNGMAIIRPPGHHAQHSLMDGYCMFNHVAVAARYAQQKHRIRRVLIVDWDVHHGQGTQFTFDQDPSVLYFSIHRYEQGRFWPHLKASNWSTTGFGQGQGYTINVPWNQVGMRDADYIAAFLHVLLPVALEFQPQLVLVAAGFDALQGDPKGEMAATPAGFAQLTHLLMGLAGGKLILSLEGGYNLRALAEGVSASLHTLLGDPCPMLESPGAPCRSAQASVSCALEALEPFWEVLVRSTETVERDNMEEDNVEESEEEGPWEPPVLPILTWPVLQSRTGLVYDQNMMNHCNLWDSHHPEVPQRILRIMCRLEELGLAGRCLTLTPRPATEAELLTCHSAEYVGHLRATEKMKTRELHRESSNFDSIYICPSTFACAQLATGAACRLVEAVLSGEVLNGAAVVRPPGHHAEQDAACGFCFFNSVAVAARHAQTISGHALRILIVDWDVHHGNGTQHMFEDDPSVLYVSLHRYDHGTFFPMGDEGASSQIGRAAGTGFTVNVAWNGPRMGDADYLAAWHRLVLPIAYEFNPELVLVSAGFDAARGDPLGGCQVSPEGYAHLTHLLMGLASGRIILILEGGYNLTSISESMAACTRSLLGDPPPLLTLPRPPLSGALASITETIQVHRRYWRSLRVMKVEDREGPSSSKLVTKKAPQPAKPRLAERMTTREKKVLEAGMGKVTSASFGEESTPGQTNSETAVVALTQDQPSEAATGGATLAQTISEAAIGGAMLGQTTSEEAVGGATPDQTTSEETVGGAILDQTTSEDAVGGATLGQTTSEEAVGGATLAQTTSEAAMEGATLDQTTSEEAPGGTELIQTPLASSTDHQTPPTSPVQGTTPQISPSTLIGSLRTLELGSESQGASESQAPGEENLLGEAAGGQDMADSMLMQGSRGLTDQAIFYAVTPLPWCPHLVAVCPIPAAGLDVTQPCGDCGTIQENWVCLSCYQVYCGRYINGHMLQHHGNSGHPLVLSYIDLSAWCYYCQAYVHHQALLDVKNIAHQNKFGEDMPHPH
UniProt Q92769: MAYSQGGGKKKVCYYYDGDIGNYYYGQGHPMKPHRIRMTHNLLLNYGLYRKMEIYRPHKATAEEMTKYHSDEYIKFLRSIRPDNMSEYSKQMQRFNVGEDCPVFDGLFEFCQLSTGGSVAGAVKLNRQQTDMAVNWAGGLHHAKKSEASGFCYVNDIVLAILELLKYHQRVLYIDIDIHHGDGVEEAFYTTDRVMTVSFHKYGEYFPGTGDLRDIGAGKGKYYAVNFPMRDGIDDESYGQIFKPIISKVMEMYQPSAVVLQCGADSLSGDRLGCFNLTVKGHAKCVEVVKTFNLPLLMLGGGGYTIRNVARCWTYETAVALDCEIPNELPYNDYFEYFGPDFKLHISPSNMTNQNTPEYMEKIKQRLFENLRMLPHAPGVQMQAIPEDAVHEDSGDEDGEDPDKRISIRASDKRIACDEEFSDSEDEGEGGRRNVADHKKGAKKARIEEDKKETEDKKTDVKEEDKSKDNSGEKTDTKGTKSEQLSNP
UniProt Q9UQL6: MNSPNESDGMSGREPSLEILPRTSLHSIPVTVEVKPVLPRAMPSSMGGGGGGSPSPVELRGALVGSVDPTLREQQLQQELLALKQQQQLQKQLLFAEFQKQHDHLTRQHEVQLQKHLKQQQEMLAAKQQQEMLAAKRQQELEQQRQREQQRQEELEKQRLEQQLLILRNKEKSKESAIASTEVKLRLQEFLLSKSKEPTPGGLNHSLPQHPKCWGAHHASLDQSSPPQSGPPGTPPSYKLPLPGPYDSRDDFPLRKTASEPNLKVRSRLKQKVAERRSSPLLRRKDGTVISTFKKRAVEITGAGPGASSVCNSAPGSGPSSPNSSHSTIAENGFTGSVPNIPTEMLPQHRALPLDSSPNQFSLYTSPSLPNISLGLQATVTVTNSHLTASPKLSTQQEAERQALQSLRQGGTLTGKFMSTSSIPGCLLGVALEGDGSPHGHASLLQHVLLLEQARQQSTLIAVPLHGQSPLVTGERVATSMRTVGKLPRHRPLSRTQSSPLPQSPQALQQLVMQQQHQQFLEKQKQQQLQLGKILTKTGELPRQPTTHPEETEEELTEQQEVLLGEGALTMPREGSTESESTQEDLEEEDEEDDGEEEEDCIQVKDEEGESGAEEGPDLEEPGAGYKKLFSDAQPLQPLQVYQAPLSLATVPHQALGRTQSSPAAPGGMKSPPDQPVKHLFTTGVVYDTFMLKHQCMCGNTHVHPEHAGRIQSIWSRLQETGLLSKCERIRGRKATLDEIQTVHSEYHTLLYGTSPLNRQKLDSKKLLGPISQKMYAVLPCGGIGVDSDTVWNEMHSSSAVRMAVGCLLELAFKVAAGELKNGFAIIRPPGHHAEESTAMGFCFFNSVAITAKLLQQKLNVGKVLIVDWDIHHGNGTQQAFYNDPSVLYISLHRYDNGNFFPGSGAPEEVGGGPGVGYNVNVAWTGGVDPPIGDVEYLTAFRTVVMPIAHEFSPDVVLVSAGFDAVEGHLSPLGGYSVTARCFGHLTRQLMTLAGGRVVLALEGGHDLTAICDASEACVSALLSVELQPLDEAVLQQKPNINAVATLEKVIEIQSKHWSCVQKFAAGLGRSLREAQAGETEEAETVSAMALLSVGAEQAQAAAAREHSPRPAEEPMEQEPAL
UniProt Q8WUI4: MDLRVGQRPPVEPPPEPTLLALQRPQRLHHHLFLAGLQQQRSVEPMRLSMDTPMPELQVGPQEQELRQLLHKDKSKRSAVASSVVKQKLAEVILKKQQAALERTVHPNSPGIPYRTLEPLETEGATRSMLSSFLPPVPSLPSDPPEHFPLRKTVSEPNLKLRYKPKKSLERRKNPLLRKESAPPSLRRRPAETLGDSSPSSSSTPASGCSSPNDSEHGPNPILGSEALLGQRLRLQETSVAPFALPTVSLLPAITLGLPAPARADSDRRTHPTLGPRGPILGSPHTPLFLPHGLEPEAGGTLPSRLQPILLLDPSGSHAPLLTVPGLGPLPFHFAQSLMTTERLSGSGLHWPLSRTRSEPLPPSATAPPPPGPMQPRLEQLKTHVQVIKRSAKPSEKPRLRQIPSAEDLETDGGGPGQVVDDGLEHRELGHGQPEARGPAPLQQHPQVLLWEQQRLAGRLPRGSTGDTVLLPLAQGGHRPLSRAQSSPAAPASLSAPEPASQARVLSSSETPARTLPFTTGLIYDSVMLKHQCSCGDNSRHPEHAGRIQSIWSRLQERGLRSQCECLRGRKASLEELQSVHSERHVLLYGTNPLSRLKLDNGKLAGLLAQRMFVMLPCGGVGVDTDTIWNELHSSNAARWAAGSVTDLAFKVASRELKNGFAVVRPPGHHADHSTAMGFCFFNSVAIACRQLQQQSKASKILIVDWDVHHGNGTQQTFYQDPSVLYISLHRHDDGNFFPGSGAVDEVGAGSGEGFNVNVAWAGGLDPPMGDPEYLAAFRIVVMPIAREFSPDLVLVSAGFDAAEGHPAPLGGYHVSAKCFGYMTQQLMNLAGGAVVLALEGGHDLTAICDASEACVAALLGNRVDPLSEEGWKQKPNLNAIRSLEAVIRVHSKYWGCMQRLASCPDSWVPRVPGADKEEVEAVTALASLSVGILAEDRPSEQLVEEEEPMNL
UniProt Q9BY41: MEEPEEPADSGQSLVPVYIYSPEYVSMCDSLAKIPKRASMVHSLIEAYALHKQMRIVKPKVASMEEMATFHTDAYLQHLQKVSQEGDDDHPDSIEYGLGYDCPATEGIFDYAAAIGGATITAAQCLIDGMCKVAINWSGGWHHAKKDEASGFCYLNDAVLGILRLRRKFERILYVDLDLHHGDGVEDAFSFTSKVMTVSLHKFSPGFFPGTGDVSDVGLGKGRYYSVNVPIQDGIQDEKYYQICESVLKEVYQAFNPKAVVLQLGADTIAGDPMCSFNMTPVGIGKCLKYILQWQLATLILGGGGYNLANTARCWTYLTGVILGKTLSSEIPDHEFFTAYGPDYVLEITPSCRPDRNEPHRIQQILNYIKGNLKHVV
UniProt Q96DB2: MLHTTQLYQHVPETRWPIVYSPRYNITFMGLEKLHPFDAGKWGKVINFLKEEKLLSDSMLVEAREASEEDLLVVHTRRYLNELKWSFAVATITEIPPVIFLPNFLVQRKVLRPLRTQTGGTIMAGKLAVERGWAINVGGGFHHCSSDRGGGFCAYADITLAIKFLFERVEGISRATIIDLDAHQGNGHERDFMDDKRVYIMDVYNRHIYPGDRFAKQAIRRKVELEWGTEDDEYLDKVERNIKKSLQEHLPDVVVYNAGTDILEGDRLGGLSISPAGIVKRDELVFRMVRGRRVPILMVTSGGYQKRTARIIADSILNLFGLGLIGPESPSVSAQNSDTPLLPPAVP
UniProt Q9UKV0: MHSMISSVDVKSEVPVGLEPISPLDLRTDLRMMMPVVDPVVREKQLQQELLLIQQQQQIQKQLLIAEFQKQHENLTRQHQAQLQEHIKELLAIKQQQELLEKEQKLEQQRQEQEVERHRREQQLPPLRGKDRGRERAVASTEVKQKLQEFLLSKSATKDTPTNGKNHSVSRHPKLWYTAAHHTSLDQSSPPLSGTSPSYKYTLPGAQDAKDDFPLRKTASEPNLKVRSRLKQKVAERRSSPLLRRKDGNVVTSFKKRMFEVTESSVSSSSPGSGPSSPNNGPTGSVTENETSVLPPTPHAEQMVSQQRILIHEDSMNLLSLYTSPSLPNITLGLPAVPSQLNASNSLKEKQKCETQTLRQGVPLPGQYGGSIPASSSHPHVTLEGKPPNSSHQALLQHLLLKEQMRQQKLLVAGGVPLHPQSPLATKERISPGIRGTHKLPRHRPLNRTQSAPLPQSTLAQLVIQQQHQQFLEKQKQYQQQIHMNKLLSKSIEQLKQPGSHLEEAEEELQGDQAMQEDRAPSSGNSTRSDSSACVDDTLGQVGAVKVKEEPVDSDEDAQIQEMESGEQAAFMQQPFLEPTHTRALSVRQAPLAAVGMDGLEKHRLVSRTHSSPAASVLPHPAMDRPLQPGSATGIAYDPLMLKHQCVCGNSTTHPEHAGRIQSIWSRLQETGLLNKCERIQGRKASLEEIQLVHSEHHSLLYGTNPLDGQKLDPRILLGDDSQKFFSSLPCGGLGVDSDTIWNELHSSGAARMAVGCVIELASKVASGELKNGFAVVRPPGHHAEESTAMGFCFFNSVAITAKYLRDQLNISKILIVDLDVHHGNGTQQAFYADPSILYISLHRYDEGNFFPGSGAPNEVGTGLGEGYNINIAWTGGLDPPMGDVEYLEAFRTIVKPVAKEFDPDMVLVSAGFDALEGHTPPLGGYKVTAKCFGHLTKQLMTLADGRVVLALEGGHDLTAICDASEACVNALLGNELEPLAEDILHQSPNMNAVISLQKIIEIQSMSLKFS

What was measured:
[1] = biological target: Histone deacetylase (Homo sapiens) (UniProt Q13547+O15379+Q9UBN7+Q92769+Q9UQL6+Q8WUI4+Q9BY41+Q96DB2+P56524+Q9UKV0+Q969S8); assay: Ratio of SAHA IC50 to compound IC50 for HDAC in human HeLa cell nuclear extracts using Ac-NH-GGK(Ac)-AMC as substrate after 180 mins by fluorescence assay; assay type: protein assay
Histone deacetylase 1 = Histone deacetylase 1 (Homo sapiens, UniProt Q13547); assay: Ratio of SAHA IC50 to compound IC50 for human recombinant HDAC1 expressed in human HEK293 cells using Ac-NH-GGK(Ac)-AMC as substrate after 180 mins by fluorescence assay; assay type: cell-based

Ratio IC50 [1]: 10
Ratio IC50 (Histone deacetylase 1): 10
Compound: C#Cc1cccc(Nc2ncnc3ccc(S(=O)(=O)n4ccc(/C=C/C(=O)NO)c4)cc23)c1
